In US7442519B2, “KCNQ2-15 potassium channel” (priority 2002, dated 2008):

Tested on: Xenopus laevis oocytes
Experiment: Electrophysiological analysis (two-electrode voltage clamp) of homotetrameric potassium channels
Format: cell-based
Details: 0.4 ng of DNA injected
Method: The animal was anesthetized and pieces of the ovary were surgically removed and individual oocytes were dissected away in a saline solution (ND96) containing 96 mM NaCl, 2 mM KCl, 2 mM CaCl2, 2 mM MgCl2 and 5 mM HEPES at pH 7.4. Stage V and VI oocytes were treated at room temperanre for 2 h with collagenase type 1A (1 mg/ml) in the presence of 0.2 mg/ml trypsin inhibitor in saline solution to discard follicular cells. The concentrations were determined by measuring the absorbance at 260 nm. DNA corresponding to KCNQ2, 3H2 and 3H9 K+ channels were subcloned in PEKO vector in order to generate the respective cRNAS. cRNA concentrations were measured by absorbance at 260 nm. cRNA solutions were injected (about 50 nL/oocyte) using a pressure microinjector (Inject+matic, Geneve). Oocytes were then kept for 2-6 days in ND96 solution supplemented wirn 50 U/mL penicillin and 50 U/mL streptomycin.
In a 0.3 mL perfusion chamber, a single oocyte was impaled with two standard glass microelectrode (0.5-2 Mohm resistance) filled with 3M KCl and maintained under voltage clamp using a Dagan TEV200 amplifier system, USA. Electrical stimulations, data acquisition and analyses were performed using pClamp software (Axon Instruments, USA). […]

## KCNQ2-fl: full-length KCNQ2 polypeptide of SEQ ID NO: 7
  intensity of the M-current generated by the homotetrameric potassium channel: about 1 μA
